In this assay the target is BCL-2 (Homo sapiens, UniProt P10415). In words: BH3 domain binding affinities to BCL-2.

Protein sequences, listed by entry. Tags and fused reporters are not part of them.
UniProt P10415, whole entry: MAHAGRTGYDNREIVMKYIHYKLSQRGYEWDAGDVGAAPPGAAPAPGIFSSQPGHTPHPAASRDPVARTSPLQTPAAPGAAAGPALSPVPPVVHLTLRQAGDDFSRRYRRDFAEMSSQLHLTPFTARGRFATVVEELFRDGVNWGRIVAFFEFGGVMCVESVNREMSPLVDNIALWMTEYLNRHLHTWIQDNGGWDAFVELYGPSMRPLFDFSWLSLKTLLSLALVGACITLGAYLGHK

Broadly, the Kd is the constant that tells how readily two partners part at equilibrium. Lower therefore signals tighter binding.

Compound `CC1(C)CCC(c2ccc(Cl)cc2)=C(CN2CCN(c3ccc(C(=O)NS(=O)(=O)c4ccc(N[C@H](CCN5CCOCC5)CSc5ccccc5)c(S(=O)(=O)C(F)(F)F)c4)cc3)CC2)C1` [ABT-263, Navitoclax] gave a Kd of 0.02 nM. In other words, the picomolar range.

Values taken from patent publication US20190257816A1, “DIFFERENTIAL BH3 MITOCHONDRIAL PROFILING” (Eutropics Pharmaceuticals, Inc., priority 2013, published 2019).
